The values below come from article PMC11178805, “Ligand-based design of [^18F]OXD-2314 for PET imaging in non-Alzheimer’s disease tauopathies” (Nature Communications, 2024).

Sequences of proteins named here, by UniProt entry; tags and fusion partners are left off. Residues count along the entry.
UniProt P10636, 1-441 isoform 8: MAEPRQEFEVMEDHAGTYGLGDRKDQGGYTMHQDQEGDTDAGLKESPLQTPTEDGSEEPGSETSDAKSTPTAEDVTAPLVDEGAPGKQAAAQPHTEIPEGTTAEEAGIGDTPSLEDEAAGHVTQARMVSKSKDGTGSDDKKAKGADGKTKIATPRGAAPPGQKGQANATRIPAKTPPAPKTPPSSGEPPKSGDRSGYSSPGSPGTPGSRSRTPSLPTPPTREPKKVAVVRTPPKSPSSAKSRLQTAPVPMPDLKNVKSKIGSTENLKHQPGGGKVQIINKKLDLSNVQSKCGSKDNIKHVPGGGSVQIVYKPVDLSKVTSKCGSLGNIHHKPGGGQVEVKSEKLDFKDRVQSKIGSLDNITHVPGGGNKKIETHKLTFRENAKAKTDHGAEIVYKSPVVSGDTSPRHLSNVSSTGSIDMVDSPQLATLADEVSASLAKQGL
UniProt P10636, 623-708 limits assumed: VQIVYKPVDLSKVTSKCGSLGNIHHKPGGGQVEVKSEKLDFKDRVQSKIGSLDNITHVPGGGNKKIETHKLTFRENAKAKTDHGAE
UniProt P10636, 1-410 isoform 5: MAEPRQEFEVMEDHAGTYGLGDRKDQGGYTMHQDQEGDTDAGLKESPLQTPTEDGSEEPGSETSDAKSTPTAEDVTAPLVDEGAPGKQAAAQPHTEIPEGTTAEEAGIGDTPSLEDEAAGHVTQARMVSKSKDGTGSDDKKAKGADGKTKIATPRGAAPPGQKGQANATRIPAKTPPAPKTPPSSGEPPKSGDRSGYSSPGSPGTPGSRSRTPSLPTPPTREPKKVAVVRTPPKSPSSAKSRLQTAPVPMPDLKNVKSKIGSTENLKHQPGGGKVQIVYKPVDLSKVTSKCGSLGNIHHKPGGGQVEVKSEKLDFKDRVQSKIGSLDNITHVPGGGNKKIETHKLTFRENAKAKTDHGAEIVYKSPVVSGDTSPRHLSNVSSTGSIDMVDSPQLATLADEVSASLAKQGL

Usually Kd stands for the concentration at which binding is half-saturated.

Experiment [1] addresses 3R/4R-tau aggregates in AD tissues (Homo sapiens, UniProt P10636). Briefly: Radioligand Kd/Bmax assay (Scatchard) in AD brain homogenates. Conditions: read-out: AD Kd; AD frontal cortex homogenate pooled from three cases, n = 3, mean ± SD; tested as the radiolabelled form.
Experiment [2] addresses 4R-tau aggregates in PSP tissues (Homo sapiens, UniProt P10636). Briefly: Radioligand Kd/Bmax assay (Scatchard) in PSP brain homogenates. The settings on record: read-out: PSP Kd; PSP frontal cortex homogenate pooled from three cases, n = 3, mean ± SD; tested as the radiolabelled form.
Experiment [3] has as its target 4R-tau aggregates in CBD tissues (Homo sapiens, UniProt P10636). As to the kind of experiment: Radioligand Kd/Bmax assay (Scatchard) in CBD brain homogenates. The settings on record: read-out: CBD Kd; CBD frontal cortex homogenate pooled from three cases, n = 3, mean ± SD; tested as the radiolabelled form.
Experiment [4] deals with 3R-tau aggregates in PiD tissues (Homo sapiens, UniProt P10636). Briefly: Radioligand Kd/Bmax assay (Scatchard) in PiD brain homogenates. The settings on record: read-out: PiD Kd; PiD frontal cortex homogenate pooled from three cases, n = 3, mean ± SD; tested as the radiolabelled form.
Experiment [5] has as its system PD tissue (frequent α-synuclein aggregates). Briefly: Radioligand Kd/Bmax assay (Scatchard) in PD brain homogenates. The settings on record: read-out: PD Kd; PD frontal cortex homogenate pooled from 4 cases, n = 3, mean ± SD; tested as the radiolabelled form.
Experiment [6] can be described thus: Radioligand Kd assay in healthy control brain homogenate. Conditions: control tissue, single subject, undefined = insufficient specific binding to fit the data, tested as the radiolabelled form.

Take `OCC1CCN(c2ccc(-c3cc4cc(O)ccc4[nH]3)c(F)n2)CC1` [OXD-2115]: the Kd was 5.5 nM in experiment [1]; 4.9 nM in experiment [2]; 27 nM in experiment [3]; 34 nM in experiment [4]; 48 nM in experiment [5]. Besides, the “Control Kd” value in experiment [6] is on record as “Undefined”; in experiment [6] (listed as [3H]OXD-2115) it was “undefined”.
With `Fc1cc(-c2ccc3c(n2)[nH]c2ccncc23)ccn1`, the figures for the Kd in experiment [1], in experiment [2] and in experiment [3] were 2.5 nM, 5.3 nM and 23 nM, respectively. In addition, the “Control Kd” value in experiment [6] is reported as “Undefined”.
For the molecule `CNc1ccc(/C=C/C=C/c2nc3ccc(OCC(O)CF)cc3s2)cn1` (centres unmarked), the Kd in experiment [1] was determined as 4.1 nM; in experiment [2], 4.6 nM; in experiment [3], 36 nM; in experiment [4], 20 nM; in experiment [5] it was 5.1 nM. Besides, in experiment [6], the “Control Kd” value was “Undefined”.
